From paper PMC9098913, “In vitro reconstitution of Escherichia coli divisome activation” (Nature Communications, 2022)
“And” between values parts separate entries of the source, which are not always exact repeats. Equal entries are not always repeated.

Legend:
[1] = molecular target: T1, FtsA R286W (E. coli), P0ABH0; assay: FRET or BRET; acceptor photobleaching on supported lipid bilayers; equimolar Cy3- and Cy5-FtsA with 20% unlabelled FtsA; FtsA alone, 0.4 µM; details: remark: other sources report otherwise
T1 chain: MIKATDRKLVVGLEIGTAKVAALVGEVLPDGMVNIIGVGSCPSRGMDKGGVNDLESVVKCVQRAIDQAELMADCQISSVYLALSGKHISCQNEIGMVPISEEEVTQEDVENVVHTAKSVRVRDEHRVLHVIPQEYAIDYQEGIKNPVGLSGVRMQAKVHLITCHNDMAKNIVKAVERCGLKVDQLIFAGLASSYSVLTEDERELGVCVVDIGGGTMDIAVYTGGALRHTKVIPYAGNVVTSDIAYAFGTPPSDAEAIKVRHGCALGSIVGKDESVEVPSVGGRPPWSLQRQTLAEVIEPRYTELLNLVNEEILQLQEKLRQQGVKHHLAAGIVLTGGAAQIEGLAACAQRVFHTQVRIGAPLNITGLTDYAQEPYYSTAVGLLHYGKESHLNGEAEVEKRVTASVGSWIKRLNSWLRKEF

[2] = molecular target: T1, FtsA R286W (E. coli), P0ABH0; assay: FRET or BRET; acceptor photobleaching on supported lipid bilayers with 0.25% Tris-NTA lipids pre-equilibrated with FtsN_(cyto), and 1.25 µM unlabelled FtsZ; 0.4 µM FtsA; details: remark: other sources report otherwise
[3] = Single-molecule membrane residence time of FtsA; type: binding; details: for mean residence time on the membrane: single-particle tracking, n = 3; for residence time, fold shorter than wild-type FtsA: 0.1–0.8 µM
Procedure: (§1) First, we studied the behaviour of single FtsA proteins on the membrane surface.
(§2) After 5 min of incubation, single molecule time lapses were acquired every 125, 250, 500, and 1000 and 2000 ms, with an exposure time of 50 ms. Subsequently, the bulk concentration of FtsA was increased to 0.2/0.4/0.8 µM and time lapses were repeated as described above.
(§3) Single molecules of FtsA or FtsZ were tracked using the TrackMate plugin from ImageJ[43]. To obtain the residence time of FtsZ and FtsA, we performed a residence time analysis as described before[40],[47]. Shortly, single molecules were imaged at different acquisition rates (0.1–2 s) and the lifetime of the molecules was extracted from each data set. To account for photobleaching effect, the obtained lifetimes were plotted against the acquisition rate. […] Furthermore, we extracted the diffusion coefficient of FtsA single molecules at increasing concentrations. For this, we filtered the obtained data, by considering only trajectories which are present on the membrane for more than 0.4 s. […] Subsequently, the diffusion coefficient of FtsA molecules was estimated by fitting an MSD curve to each individual trajectory.

[4] = Membrane off-binding rate (koff) of FtsA from FRAP; details: in the presence of FtsZ
Text: We could also use the data from these bleaching experiments to quantify the membrane-binding kinetics and diffusion of membrane-bound proteins by analysing the change of the fluorescence profile during recovery.
(§4) Equimolar concentrations of Cy3- and Cy5-labelled FtsA, supplemented with 20% unlabelled FtsA were used to study FRET and FRAP. Five pre-bleach frames were acquired, followed by acceptor photobleaching of a rectangular ROI with 40% 641 nm laser power and a dwell size of 1 µs/pixel, 75% overlapping lines. The recovery of the signal or the increase in donor intensity were measured with either two frames or one frame per second.
Bleaching the acceptor dye leads to an increase in the donor intensity, which can be used to quantify the Foerster Resonance energy transfer (FRET)[48]. FRET efficiency was quantified with E%=Ipost/Ipost+Ipre⋅100 , where Ipost is the intensity of the […] and Ipre is the […]. […] To extract the contribution of both processes, we adjusted a routine recently published by Gerganova et al.[33]. In short, the code provides the contribution of both modes of recovery by analysing the shape of the fluorescence recovery profile. […] Contribution of diffusion leads to a change of the slope of the outer borders of the bleached region (S4h right). […]

[5] = Single-molecule diffusion coefficient of FtsA on the membrane; details: Fig. 3b
Procedure: as §1, §2, §3

[6] = tested on: FtsA self-interaction; assay: FRET (acceptor photobleaching) self-interaction of FtsA on supported lipid bilayers; type: binding, E. coli
Text: To directly measure FtsA self-interaction in our fluorescence microscopy experiments, we established a FRET (Förster resonance energy transfer)-based assay using FtsA labelled with either Cy5 (acceptor) or Cy3 (donor). […] We then decided to use this approach to measure the degree of FtsA self-interaction on supported lipid membranes by quantifying the increase in donor fluorescence after photobleaching the acceptor fluorophore[30]–[32] (Fig. 3c–e and Fig. S3d). […] As a negative control, we also attached the Hexahistidine-SUMO-tag (His-SUMO) labelled with Cy5 and Cy3 to membranes with an increasing density of Tris-NTA lipids.
as §4
Bleaching the acceptor dye leads to an increase in the donor intensity, which can be used to quantify the Foerster Resonance energy transfer (FRET)[48]. FRET efficiency was quantified with E%=Ipost/Ipost+Ipre⋅100 , where Ipost is the intensity of the […] and Ipre is the […]. […] To extract the contribution of both processes, we adjusted a routine recently published by Gerganova et al.[33]. In short, the code provides the contribution of both modes of recovery by analysing the shape of the fluorescence recovery profile. […] Contribution of diffusion leads to a change of the slope of the outer borders of the bleached region (S4h right). Thus, by measuring the change of the slope of the border recovery, diffusion and simple on/off binding can be distinguished. We developed “FRAPdiff”, a graphical user interface, which uses the original fit routine by David Rutkowski. It can be used directly on.tiff movies with annotated bleach regions as ImageJ ROIs. In addition, we added optional bleach correction, user selectable projection axis (x or y), and optional mirroring of the recovery profiles, if bleaching was not symmetric. The original fit routine for estimating the recovery and diffusion dynamics can be found at https://github.com/davidmrutkowski/1DReflectingDiffusion. FRAPdiff is available at 10.5281/zenodo.6400639[49] under the GPLv3 open-source license.

B1: FtsA R286W, P0ABH0 1-420 (natural protein)
chain: T1 chain
modifications: here or on the partner: Cy3 or Cy5 at the N-terminus in the labelled form (labelled CLEPTGG peptide conjugated to the 5xGly tag by sortagging); unlabelled protein also used; Cy3 or Cy5 at the N-terminus in the labelled form (labelled CLEPTGG peptide conjugated to the 5xGly tag by sortagging); unlabelled protein also used
FRET efficiency, 0.4 µM FtsA [1]: 8.1%
FRET efficiency with FtsN (cyto) and FtsZ, 0.4 µM FtsA [2]: 28.1%

B2: FtsA R286W (protein)
chain: T1 chain
modifications: Cy3 or Cy5 at the N-terminus in the labelled form (labelled CLEPTGG peptide conjugated to the 5xGly tag by sortagging); unlabelled protein also used; left off: TwinStrep-SUMO, N-terminal, cleaved | 5x
mean residence time on the membrane ([3]; 0.1 µM FtsA): 2.6 ± 0.5 s
mean residence time on the membrane ([3]; 0.8 µM FtsA): 14.1 ± 2.3 s
residence time, fold shorter than wild-type FtsA [3]: 2–7 fold
residence time, fold shorter than wild-type FtsA ([3]; listed as R286W): 2-7 fold
turnover relative to FtsZ monomers (times faster) [4]: 1–2 times
mobility relative to WT (more mobile) [5]: 10 x
FRET efficiency, mean ([6]; 0.1 µM FtsA + FtsN&Z): 18.47% and 18.4733%
FRET efficiency, mean ([6]; 0.1 µM FtsA + FtsN): 9.23% and 9.2350%
FRET efficiency, mean ([6]; 0.1 µM FtsA + FtsZ): 2.25% and 2.2550%
FRET efficiency, mean ([6]; 0.1 µM FtsA alone): 1.34% and 1.3448%
FRET efficiency, mean ([6]; 0.2 µM FtsA + FtsN&Z): 22.39% and 22.3933%
FRET efficiency, mean ([6]; 0.2 µM FtsA + FtsN): 18.49% and 18.4880%
FRET efficiency, mean ([6]; 0.2 µM FtsA + FtsZ): 7.1591%
FRET efficiency, mean ([6]; 0.2 µM FtsA alone): 4.11% and 4.1052%
FRET efficiency, mean ([6]; 0.4 µM FtsA + FtsN&Z): 28.0125% and 28.01%
FRET efficiency, mean ([6]; 0.4 µM FtsA + FtsN): 21.2650% and 21.26%
FRET efficiency, mean ([6]; 0.4 µM FtsA + FtsZ): 18.1945%
FRET efficiency, mean ([6]; 0.4 µM FtsA alone): 8.0898% and 7.89%
FRET efficiency ([6]; 0.4 µM FtsA with FtsNcyto and FtsZ, p-value 0.64): 28.1 ± 4.6%
FRET efficiency ([6]; 0.4 µM FtsA, p-value 6.12 × 10^−9): 8.1 ± 2.8%
FRET efficiency, mean ([6]; 0.8 µM FtsA + FtsN&Z): 30.6167% and 30.62%
FRET efficiency, mean ([6]; 0.8 µM FtsA + FtsN): 21.2075% and 21.21%
FRET efficiency, mean ([6]; 0.8 µM FtsA + FtsZ): 23.7840%
FRET efficiency, mean ([6]; 0.8 µM FtsA alone): 13.3594% and 13.36%
FRET efficiency ([6]; Fig. S3f, 0.2µM FtsA + N/Z, replicate 1): 12.4%
FRET efficiency ([6]; Fig. S3f, 0.2µM FtsA + N/Z, replicate 2): 18.24%
FRET efficiency ([6]; Fig. S3f, 0.2µM FtsA + N/Z, replicate 3): 25.5%
FRET efficiency ([6]; Fig. S3f, 0.2µM FtsA + N, replicate 1): 9.44%
FRET efficiency ([6]; Fig. S3f, 0.2µM FtsA + N, replicate 2): 17.49%
FRET efficiency ([6]; Fig. S3f, 0.2µM FtsA + N, replicate 3): 21.95%
FRET efficiency ([6]; Fig. S3f, 0.2µM FtsA + Z, replicate 1): 8.5%
FRET efficiency ([6]; Fig. S3f, 0.2µM FtsA + Z, replicate 2): 3.89%
FRET efficiency ([6]; Fig. S3f, 0.2µM FtsA + Z, replicate 3): 5.5%
FRET efficiency ([6]; Fig. S3f, 0.2µM FtsA, replicate 1): 1.26%
FRET efficiency ([6]; Fig. S3f, 0.2µM FtsA, replicate 2): 2.19%
FRET efficiency ([6]; Fig. S3f, 0.2µM FtsA, replicate 3): 0.76%
FRET efficiency ([6]; Fig. S3f, 0.4µM FtsA + N/Z, replicate 1): 35.49%
FRET efficiency ([6]; Fig. S3f, 0.4µM FtsA + N/Z, replicate 2): 19.13%
FRET efficiency ([6]; Fig. S3f, 0.4µM FtsA + N/Z, replicate 3): 25.1%
FRET efficiency ([6]; Fig. S3f, 0.4µM FtsA + N, replicate 1): 32.24%
FRET efficiency ([6]; Fig. S3f, 0.4µM FtsA + N, replicate 2): 15.7%
FRET efficiency ([6]; Fig. S3f, 0.4µM FtsA + N, replicate 3): 10.51%
FRET efficiency ([6]; Fig. S3f, 0.4µM FtsA + Z, replicate 1): 5.5%
FRET efficiency ([6]; Fig. S3f, 0.4µM FtsA + Z, replicate 2): 5.74%
FRET efficiency ([6]; Fig. S3f, 0.4µM FtsA + Z, replicate 3): 26.68%
FRET efficiency ([6]; Fig. S3f, 0.4µM FtsA, replicate 1): 10.64%
FRET efficiency ([6]; Fig. S3f, 0.4µM FtsA, replicate 2): 6.33%
FRET efficiency ([6]; Fig. S3f, 0.4µM FtsA, replicate 3): 6.92%
FRET efficiency increase with FtsNcyto and FtsZ ([6]; both binding partners present): increased three-fold
